Source: patent publication US7396645B1, “Cholestasis signature” (priority 2002, dated 2008)

System: livers of rats
Details: rat, in vivo

## S=C=Nc1cccc2ccccc12
  bile duct hyperplasia: moderate
